Experimental data taken from ChEMBL document CHEMBL1134301, “[1,2,4]Triazino[4,3-a]benzimidazole acetic acid derivatives: a new class of selective aldose reductase inhibitors” (J Med Chem, 2001).

Biological target: Aldo-keto reductase family 1 member B1 (Rattus norvegicus, UniProt P07943)
Assay: Inhibitory concentration to aldose reductase (ALR-2) obtained from rat lens

- IC50: 650 nM
SMILES: O=C1NC(=O)[C@@]2(CCOc3ccc(F)cc32)N1 [SORBINIL]
